Literature values, collected in US8148388B2, “2,4 (4,6) pyrimidine derivatives” (Janssen Pharmaceutica, N.V., priority 2004, dated 2012).

System: breast cancer
Details: patients; cited from earlier work

## Trastuzumab [Herceptin]
  anti-tumour activity in clinical trials: anti-tumour activity against breast cancer
